From patent publication US20110038921A1, “METHODS AND COMPOSITIONS FOR TEMPORAL RELEASE OF AGENTS FROM A BIODEGRADABLE SCAFFOLD” (Clemson University Research Foundation, priority 2009, published 2011)

Tests used:
ectopic bone formation = experiment: Ectopic bone formation, BMP-2 loaded scaffold implanted subcutaneously in rats, μCT; assay type: in vivo, rat; settings: nanoLbL scaffold 5 mm x 2 mm; subcutaneous, back of adult male S.D. rats; 4 weeks
Excerpt: FIG. 10. […] Micro-CT of BMP-2 loaded scaffold after four weeks implantation subcutaneously into the back of rats. One slice in cross section (A) and one slice in horizontal section (B).
Using the same nanoLbL technology, BMP-2 was loaded onto scaffolds of 5 mm diameter and 2 mm thickness. The scaffolds were implanted subcutaneously into the backs of adult male S.D. rats. After 4 weeks, the rats were sacrificed and the implants were harvested for μCT examination for bone formation inside the scaffolds.

[1] = In vitro release from nanoLbL-coated PLGA-collagen scaffold into PBS (UV-vis, ELISA); assay type: physicochemical; settings: nanoLbL coating on PLGA-collagen scaffold; monitored up to 40 days
Method: Nano-Layer-by-Layer (NanoLbL) technology is used to further functionalize biodegradable scaffolds. Using this technique, surface modification of a charged template occurs via electrostatic interactions. It offers a facile method to create multifunctional nano-coatings with tunable release kinetics. A compartmentalization technique that allows for multimolecule release was used. In one example, PLGA 50:50 copolymer and collagen were dissolved in hexafluoro-2-propanol in a ratio of 7 to 1. The polymer solution was fed by syringe pump at a rate of 0.015 mL/min through a 23 gauge blunt tipped needle. A voltage of 10 kV and a working distance of 10 cm were used. The PLGA/collagen fibers were collected on square glass sheets on top of grounded aluminum foil. The fibrous scaffolds are then crosslinked in 5% genipin solution for one hour. The scaffolds were rinsed in ethanol and dried in a stream of nitrogen prior to deposition of nano-layers. Collagen, having an isoelectric point of 5.5, is negatively charged at physiologic pH, providing a charged surface upon which the nanoLbL process can proceed. Polyelectrolyte solutions of polycation poly (allylamine hydrochloride) (PAH), and the polyanion poly(acrylic acid) (PAA) were prepared in 0.15M NaCl solution at 1 mg/mL. […] For PD98059 loaded samples, release was monitored for 21 days. […]

## BMP-2: bone morphogenetic protein 2, growth factor
Ectopic bone formation
  Ectopic bone formation: induces ectopic bone formation
[1]
  Start of release from the bottom compartment: started after release of the inhibitors
